Assays:
Assay in all cases: PPO enzyme inhibition (IC50), MBP-fused PPO
Format in all cases: biochemical
Details in all cases: 50 μM protoporphyrinogen IX, pH 8.0, room temperature, 30 min
[1] = molecular target: Thermosynechococcus sp. NK55a PPO CyPPO17 (SEQ ID NO: 3) variant V304M (MBP fusion)
Experimental: (§1) Thus, PPO proteins of wild type and variants were expressed as fused to MBP and were used for experiments.
(§2) The following process for purification of PPO protein was performed in a 4° C. cold room. Amylose resin (NEB) was packed to 1.5×15 cm column (Bio-Rad, Econo Columns 1.5×15 cm, glass chromatography column, max. vol), and the obtained protein extracts were loaded to the column at a flow rate of 0.2 ml/min. The column was washed with 3 column volumes of buffer and the presence of protein in the washing solution was examined. When the protein was no longer detected, the washing procedure was terminated. Then, the MBP-PPO protein was eluted with approximately 2 column volumes of buffer containing 20 mM maltose. The protein concentration of each eluent was determined and the elution was stopped when the protein was no longer detected. Ten microliter of each fraction was investigated for protein quantification and SDS-PAGE analysis. The highly pure fractions of PPO protein variants were used for the enzyme assay.
(§3) Since protoporphyrinogen IX, a substrate of PPO protein, was not commercially available, it was chemically synthesized in the laboratory. Overall process was performed in dark under nitrogen stream. […] of protoporphyrin IX was dissolved in 20 ml of 20% (v/v) EtOH, and stirred under dark condition for 30 minutes. The obtained protoporphyrin IX solution was put into a 15 ml screw tube in an amount of 800 μl, and flushed with nitrogen gas for 5 minutes. To this, 1.5 g of sodium amalgam was added and vigorously shaken for 2 minutes. The lid was opened to exhaust hydrogen gas in the tube. Thereafter, the lid was closed and incubated for 3 minutes. The protoporphyrinogen IX solution was filtered using syringe and cellulose membrane filter. […] To determine the enzyme activity of PPO protein, a reaction mixture was prepared with the following composition (based on 10 ml): 50 mM Tris-Cl (pH 8.0); 50 mM NaCl; 0.04% (v/v) Tween 20; 40 mM glucose (0.072 g); 5 units glucose oxidase (16.6 mg); and 10 units catalase (1 μl).
(§4) Hundred and eighty microliters of a reaction mixture containing the purified PPO protein were placed in 96 well plates and 20 μl of […] were added. […] The reaction proceeded at room temperature for 30 min and the fluorescence of protoporphyrin IX was measured using Microplate reader (Sense, Hidex) (excitation: 405 nm; emission: 633 nm). […] To this, 2.7 N HCl was added, and the absorbance at 408 nm was measured. A standard curve was generated using standard protoporphyrin IX, and PPO activity was measured by calibration of protoporphyrin IX using the standard curve of protoporphyrin IX.

[2] = molecular target: Thermosynechococcus sp. NK55a PPO CyPPO17 (SEQ ID NO: 3) variant R88A (MBP fusion)
Experimental: as §1, §2, §3, §4

[3] = molecular target: Thermosynechococcus sp. NK55a PPO CyPPO17 (SEQ ID NO: 3) variant A166L (MBP fusion)
Experimental: as §1, §2, §3, §4

[4] = molecular target: Thermosynechococcus sp. NK55a PPO CyPPO17, wild type, SEQ ID NO: 3 (MBP fusion)
Experimental: as §1, §2, §3, §4

[5] = molecular target: Thermosynechococcus sp. NK55a PPO CyPPO17 (SEQ ID NO: 3) variant L326T (MBP fusion)
Experimental: as §1, §2, §3, §4

[6] = molecular target: Thermosynechococcus sp. NK55a PPO CyPPO17 (SEQ ID NO: 3) variant V164C (MBP fusion)
Experimental: as §1, §2, §3, §4

Row | Structure (SMILES) | IC50 [1] | IC50 [2] | IC50 [3] | IC50 [4] | IC50 [5] | IC50 [6]
1 | C#CCN1C(=O)COc2cc(F)c(N3C(=O)C4=C(CCCC4)C3=O)cc21 [flumioxazin] | 63 nM | 95 nM | 2830 nM | 26 nM | 139 nM | 
2 | Cc1nn(-c2cc(NS(C)(=O)=O)c(Cl)cc2Cl)c(=O)n1C(F)F [sulfentrazone] | 1090 nM | 4430 nM |  | 326 nM | > 10000 nM | 920 nM

Reference: patent US11219221B2 (FarmHannong Co., Ltd., priority 2017, dated 2022)
